Assay [1] concerns the target recombinant human GREM1 (hGREM1-His; C-terminal 10His tagged, R&D, #5190-GR) (human) (UniProt O60565). Briefly: BLI Octet, captured mAb, 100 nM GREM1.
For assay [2] the target is unchanged. As to the kind of experiment: BLI Octet, captured mAb, 100 nM GREM1 + 5 uM heparin.
Assay [3] has the same target. As to the kind of experiment: cell-based or functional assay.
For assay [4] the target is unchanged. Briefly: BLI Octet, captured mAb, 100 nM GREM1 without vs with 5 uM heparin.

By UniProt entry, the sequences of proteins in these tests, tags left out. Chains listed by the source or under a name are the forms on record and can include a tag or linker.
UniProt O60565, other isoform, or with tags, fused parts or gaps limits assumed, form in doubt: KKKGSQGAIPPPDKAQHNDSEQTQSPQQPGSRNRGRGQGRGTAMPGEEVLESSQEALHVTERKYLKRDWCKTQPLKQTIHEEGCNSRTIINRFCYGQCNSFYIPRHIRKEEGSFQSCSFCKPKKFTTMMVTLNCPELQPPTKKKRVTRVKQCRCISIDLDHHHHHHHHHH

B1: H4H2897N (antibody, human IgG4, V domains shown)
VH: QVQLVESGGGVVQPGRSLRLSCAASGFTFTNYGMHWVRQAPGKGLEWVAAISYDGTNKYYADSVKGRFTISRDDSKNTLCLQMNSLRAEDTAVYYCAKEGTGEGFSFDYWGQGTLVTVSS
VL: DIVMTQSPLSLPVTPGEPASISCRSSQSLLHFNGYNYLDWYLQKPGQSPQLLIYLGSNRASGVPDRFSGSGSGTDFTLKVSRVEAEDVGVYYCMQALQTPFTFGPGTKVDIK
For the molecule B1, in assay [1], the Binding Signal with 30 sec Association (nm) was 0.2 nm and the Binding Signal with 300 sec Association (nm) is 0.68 nm. In assay [2], the Binding Signal with 30 sec Association (nm) was 0.01 nm and the Binding Signal with 300 sec Association (nm) turned out to be 0.26 nm. Moreover, in assay [3], the IC50 [M], W-20-17/BRE-luc luciferase bioassay, 100 pM hBMP4 and 10 nM hGREM1-His was 4.5e-10 M; the hGREM1-His Inhibition IC50, M; W-20-17 cell differentiation assay (alkaline phosphatase) turned out to be 18 nM. In assay [4], the Reduction in Signal from Heparin at 30 sec is 0.19 nm and the Reduction in Signal from Heparin at 300 sec turned out to be 0.42 nm.

The values above are taken from patent US20230192831A1.
